Experimental data as given in patent US5792799A, “Parenteral delivery of MAO A inhibitors” (Athena Neurosciences, Inc., priority 1996, dated 1998).

Tests used:
MAO B = MAO B activity in mouse striatum, liver and intestine after clorgyline (Example 1); format: in vivo, C57BL/6 mice; settings: 1 mg/kg, 5 h after dose, liver, intestine
Protocol: (§1) All experiments were performed in strict accordance with the National Institutes of Health (NIH) Guide for the Care and Use of Laboratory Animals. C57BL/6 mice were housed under constant temperature (22° C.) and humidity conditions in a room illuminated for 12 hours per day, with food and water freely available. Mice (n=5/group) were administered subcutaneously the MAO A inhibitor, clorgyline, at one of the following doses: 0; 0.25; 0.5, 0.6; 0.8; 1.0; or 2.0 mg/kg. Animals were sacrificed five hours after drug administration. Brains were removed, and dissection of the striata was performed within two minutes of cervical dislocation. Tissues were collected in buffer (pH 7.2), sonicated for approximately 10 seconds, and stored at -70° C. Similar procedures were used to collect, homogenize and store samples from the liver and gut of the animals.
(§2) MAO A and MAO B activity were measured as previously described (Yu and Hertz, J. Neurochem. 39:1492-5 (1982)), using 14C-phenylethylamine and 14C-5-hydroxytryptamine as selective substrates for MAO B and MAO A, respectively. Preliminary experiments were performed to ensure that enzyme activity was linear with respect to time and enzyme concentration, and that no more than 10-20% of the substrate was consumed during the incubation period (data not shown). Protein was measured by the method of Lowry et al. (J. Biol. Chem. 193:265-75 (1951)).

MAO A = MAO A activity in mouse striatum, liver and gut after subcutaneous clorgyline (Example 1); format: in vivo, C57BL/6 mice; settings: 0.6 mg/kg s.c., 5 h, actual values nmol/hour/mg protein compared
Protocol: as §1, §2

## C#CCN(C)CCCOc1ccc(Cl)cc1Cl [clorgyline]
MAO B
  difference in MAO B activity compared to mice injected with saline: No difference
MAO A
  MAO A activity in the gut after clorgyline treatment relative to basal striatal MAO activity in untreated animals: approximately three times greater
